Source: patent US20250027072A1, “METHODS AND CO[…] TO ENGINEERED CANNABINOID RECEPTORS” (priority 2021, published 2025)

The chains behind the UniProt entries cited, without tags or fusion partners.
UniProt P34972, whole entry: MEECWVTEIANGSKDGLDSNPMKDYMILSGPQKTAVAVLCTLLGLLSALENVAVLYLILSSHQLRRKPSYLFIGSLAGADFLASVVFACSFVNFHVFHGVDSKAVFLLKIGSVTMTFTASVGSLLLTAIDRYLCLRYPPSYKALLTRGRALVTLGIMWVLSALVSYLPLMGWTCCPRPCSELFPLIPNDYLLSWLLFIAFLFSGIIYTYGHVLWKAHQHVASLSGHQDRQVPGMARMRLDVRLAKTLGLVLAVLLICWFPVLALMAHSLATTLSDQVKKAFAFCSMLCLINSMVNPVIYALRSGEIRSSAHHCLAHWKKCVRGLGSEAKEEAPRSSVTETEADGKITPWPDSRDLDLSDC

What was measured:
Assay in all cases: cell-based
[1] = molecular target: T1, human cannabinoid receptor type II (CB2R) (Homo sapiens, UniProt P34972); parameters: other: syn-prepro CB2R; "Syn=synthetic pre-pro"; fused on or other part: synthetic yeast pre-pro secretion leader (syn-prepro) fused at the N-terminus; details: EC50, dose response with CB2R, syn-prepro CB2R
From the text: (§1) To enable function, Ste2 (the native yeast GPCR of the MATa haplotype), the negative regulator SST2 (a GTPase activating protein), and FAR1, which regulates cell cycle, were deleted in a manner consistent with prior efforts (Lengger et al. 2019). To efficiently transduce signals from the human machinery to the yeast pathway, the yeast 5 C-terminal residues of the G-alpha gene GPA1 were replaced with the sequence of the Gαi3 human G-alpha variant as previously described (Brown et al. 2000). ZsGreen1 was used to report on the activity of the pathway, integrating it into the genome in place of the pheromone-inducible Fig1 gene (FIG. 14A).
(§2) Therefore, all compounds were subsequently screened with the CB2R biosensor strain at pH 5.8.
(§3) Yeast colonies were picked and grown overnight to saturation in pH 5.8 SD-His media in a 2.2 mL deep well plate (Axygen) grown in a plate-shaking incubator (30° C., 1000 rpm, 3 mm orbital). In the morning cultures were diluted 1:10 or 1:25 in SD-His media buffered to pH 7.1 with 100 mM MOPSO (unless otherwise specified). Ligands were added to the culture and incubated with shaking for 8 hours. Cells were then washed three times with ice-cold Tris buffer (pH 7) and diluted 1:20 for cytometry. All cytometry was performed on a Sony SA3800 spectral analyzer. Each sample was tested for 10,000 events, and read at a rate of 1,000 events per second. […]

[2] = molecular target: T1, human cannabinoid receptor type II (CB2R); parameters: MFα (mating factor alpha) pre-pro leader (N); expressed in transfected cells; host or cells: Saccharomyces cerevisiae BY4741-derived biosensor strain (Gpa1-Gαi3 chimera, ZsGreen reporter); sterol-modified strain ST03 for the screens, pH 5.8; details: EC50, dose response with CB2R, WT CB2R (no leader)
From the text: as §1, §2, §3

[3] = molecular target: T1, human cannabinoid receptor type II (CB2R); parameters: other: MF alpha leader CB2R; "MF-α=mating factor alpha pre-pro"; fused on or other part: yeast mating factor alpha (MFα) pre-pro leader fused at the N-terminus; details: EC50, dose response with CB2R, MF alpha leader CB2R
From the text: as §1, §2, §3

[4] = molecular target: T1, human cannabinoid receptor type II (CB2R); details: EC50, dose response with CB2R, Ste2 signal sequence CB2R
From the text: as §1, §2, §3

## CCCCC/C=C\C/C=C\C/C=C\C/C=C\CCCC(=O)NCCO [AEA, N-arachidonoylethanolamine]
[1]
  EC50: 7620 µM
[2]
  EC50: 76.9 µM
[3]
  EC50: 419 µM
[4]
  EC50: 40.8 µM
